Laboratory results from ChEMBL document CHEMBL1144010, “Synthesis and in vitro opioid receptor functional antagonism of analogues of the selective kappa opioid receptor antagonist (3R)-7-hydroxy-N-((1S)-1-{[(3R,4R)-4-(3-hydroxyphenyl)-3,4-dimethyl-1-piperidinyl]methyl}-2-methylpropyl)-1,2,3,4-tetrahydro-3-isoquinolinecarboxamide (JDTic)” (J Med Chem, 2008).

The chains behind the UniProt entries cited, without tags or fusion partners. Where a name states a change or a piece, a line headed by the entry shows the natural chain unless it says otherwise.
UniProt P35372, whole entry: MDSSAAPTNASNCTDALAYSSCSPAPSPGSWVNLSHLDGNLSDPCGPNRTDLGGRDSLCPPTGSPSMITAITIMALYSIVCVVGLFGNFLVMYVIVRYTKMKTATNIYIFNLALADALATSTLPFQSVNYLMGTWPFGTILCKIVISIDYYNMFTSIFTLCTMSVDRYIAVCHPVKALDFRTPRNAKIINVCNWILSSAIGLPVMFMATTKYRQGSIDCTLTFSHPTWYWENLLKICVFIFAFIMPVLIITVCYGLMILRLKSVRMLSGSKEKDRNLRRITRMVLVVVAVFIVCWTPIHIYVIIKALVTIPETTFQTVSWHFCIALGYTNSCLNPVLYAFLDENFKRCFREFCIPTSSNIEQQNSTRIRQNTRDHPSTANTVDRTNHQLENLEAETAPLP
UniProt P41143, whole entry: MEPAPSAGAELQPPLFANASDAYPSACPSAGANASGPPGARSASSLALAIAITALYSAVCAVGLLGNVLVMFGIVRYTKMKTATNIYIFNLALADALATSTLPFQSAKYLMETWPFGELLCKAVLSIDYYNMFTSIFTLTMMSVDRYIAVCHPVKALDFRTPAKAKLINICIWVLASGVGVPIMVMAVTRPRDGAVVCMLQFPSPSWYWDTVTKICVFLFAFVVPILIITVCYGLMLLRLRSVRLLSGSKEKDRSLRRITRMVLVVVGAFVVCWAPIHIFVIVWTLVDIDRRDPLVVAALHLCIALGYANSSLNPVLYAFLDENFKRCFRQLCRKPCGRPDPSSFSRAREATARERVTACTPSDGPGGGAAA
UniProt P41145: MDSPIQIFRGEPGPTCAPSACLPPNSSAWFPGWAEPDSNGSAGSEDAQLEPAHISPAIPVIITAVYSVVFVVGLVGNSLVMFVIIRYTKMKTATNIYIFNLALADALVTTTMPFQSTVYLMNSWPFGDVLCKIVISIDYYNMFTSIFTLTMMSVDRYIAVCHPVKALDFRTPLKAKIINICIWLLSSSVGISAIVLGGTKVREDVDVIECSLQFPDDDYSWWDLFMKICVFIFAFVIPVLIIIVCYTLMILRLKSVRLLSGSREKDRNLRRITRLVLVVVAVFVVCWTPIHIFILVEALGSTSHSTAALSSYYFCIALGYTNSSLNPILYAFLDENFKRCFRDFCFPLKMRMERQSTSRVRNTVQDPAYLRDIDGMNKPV

Assays:
[1] = molecular target: Mu-type opioid receptor (Homo sapiens) (UniProt P35372); test: Antagonist activity at human cloned mu opioid receptor expressed in CHO cells assessed as inhibition of DAMGO-stimulated [35S]GTPgammaS binding; assay type: functional, cell-based
Method in brief: (§1)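 Agonist concentration-response curves for stimulated [35S]GTPγS binding are run with and without a single concentration of test compound. Ke = [L]/(DR−1), where DR is the ratio of agonist EC50 with and without compound. At least two compound concentrations are used, each chosen to give at least a 2-fold rightward EC50 shift and a clear upper asymptote.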

[2] = molecular target: Delta-type opioid receptor (Homo sapiens) (UniProt P41143); test: Antagonist activity at human cloned delta opioid receptor expressed in CHO cells assessed as inhibition of DPDPE-stimulated [35S]GTP-gamma-S binding; assay type: functional, cell-based; method in brief: as §1
[3] = molecular target: Kappa-type opioid receptor (Homo sapiens) (UniProt P41145); test: Antagonist activity at human cloned kappa opioid receptor expressed in CHO cells assessed as inhibition of U69593-stimulated [35S]GTP-gamma-S binding; assay type: functional, cell-based; method in brief: as §1
CHO [4] = test: Selectivity for human cloned kappa opioid receptor over human cloned mu opioid receptor expressed in CHO cells; assay type: cell-based
CHO [5] = test: Selectivity for human cloned kappa opioid receptor over human cloned delta opioid receptor expressed in CHO cells; assay type: cell-based

CC(C)[C@@H](CN1CC[C@@](C)(c2cccc(C(N)=O)c2)[C@@H](C)C1)NC(=O)[C@H]1Cc2ccc(O)cc2CN1
Ke [1]: 21 nM
Ke [2]: 478 nM
Ke [3]: 0.1 nM
Ratio Ke (CHO [4]): 210
Ratio Ke (CHO [5]): 4780
